{"source": "paper PMC6658735", "about": "(Biomaterials, 2019)", "tested_on": "AM microtissues", "settings": "3 d treatment over a wide range of doses, cell viability at day 3"}
{"substance": "Penicillin", "values": [{"measurement": "toxicity on the AM development (dose-response, in words)", "value": "no detectable toxicity"}]}
